# Test results taken from patent US5532227A, “Tetracyclines including non-antimicrobial chemically-modified tetracyclines inhibit excessive glycosylation of different types of collagen and other proteins during diabetes” (The Research Foundation of State University of New York, priority 1994, dated 1996).
# Settings: 5 mg daily oral gavage, 21 days; untreated diabetics lost weight
substance,measurement,value
tetracycline pyrazole [CMT-5],Body weight,maintained its body weight
